Reference: BindingDB's records for doi:10.1073/pnas.75.12.6290 (1978)

Sequences of proteins named here, by UniProt entry; tags and fusion partners are left off.
UniProt P31390, whole entry: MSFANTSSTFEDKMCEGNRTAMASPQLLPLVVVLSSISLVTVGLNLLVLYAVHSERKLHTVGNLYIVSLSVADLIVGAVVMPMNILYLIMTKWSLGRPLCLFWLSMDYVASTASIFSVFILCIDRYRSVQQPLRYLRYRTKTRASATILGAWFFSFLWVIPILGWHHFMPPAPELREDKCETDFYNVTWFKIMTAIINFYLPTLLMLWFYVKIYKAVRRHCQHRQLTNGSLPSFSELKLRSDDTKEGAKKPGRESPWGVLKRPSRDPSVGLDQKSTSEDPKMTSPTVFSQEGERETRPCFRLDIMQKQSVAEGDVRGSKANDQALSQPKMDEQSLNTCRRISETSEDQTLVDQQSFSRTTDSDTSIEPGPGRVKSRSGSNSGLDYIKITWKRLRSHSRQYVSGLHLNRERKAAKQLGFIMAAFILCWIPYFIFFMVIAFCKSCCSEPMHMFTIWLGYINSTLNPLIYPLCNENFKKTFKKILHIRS

Biological target: Histamine H1 receptor (Rattus norvegicus, UniProt P31390)

Ki	Compound
0.02 µM	CSc1ccc2c(c1)N(CC[C@@H]1CCCCN1C)c1ccccc1S2 [10-[2-(1-Methyl-piperidin-2-yl)-ethyl]-2-methylsulfanyl-10H-phenothiazine (thioridazine)]
0.0045 µM	CN(C)CCN(Cc1cccs1)c1ccccn1 [NSC_4098]
0.008 µM	CN(C)CCC(c1ccc(Cl)cc1)c1ccccn1 (stereo not drawn) [clorfeniramina]
0.0029 µM	CC(CN1c2ccccc2Sc2ccccc21)N(C)C (stereo not drawn) [N,N,alpha-trimethyl-10H-phenothiazine-10-ethanamine]
0.036 µM	CN(C)CCCN1c2ccccc2Sc2ccc(Cl)cc21 [[3-(2-Chloro-phenothiazin-10-yl)-propyl]-dimethyl-amine(Chlorpromazine)]
0.03 µM	CN(C)CCCN1c2ccccc2Sc2ccccc21

Compound	Ki
COc1ccc(CN(CCN(C)C)c2ccccn2)cc1	0.0045 µM
OCCN1CCN(CCCN2c3ccccc3Sc3ccc(C(F)(F)F)cc32)CC1 [2-[4-[3-[2-(trifluoromethyl)phenothiazin-10-yl]propyl]piperazin-1-yl]ethanol;hydrochloride]	0.067 µM

Structures can show the parent of a compound that is named as a salt.
